Apparent affinities of Ab-14 variants for a coronavirus HR2 peptide

Source: Li et al. 2023 (doi:10.1038/s41467-023-39022-2), MIT Lincoln Laboratory and A-Alpha Bio; data file from the FLAb repository.

Target: peptide PDVDLGDISGINAS, taken from heptad repeat 2 (HR2) of SARS-CoV-2 spike.

Parent scFv Ab-14: VH joined to VL by the linker GGGGSGGGGSGGGGS. Changes lie in the heavy chain CDRs alone.
VH: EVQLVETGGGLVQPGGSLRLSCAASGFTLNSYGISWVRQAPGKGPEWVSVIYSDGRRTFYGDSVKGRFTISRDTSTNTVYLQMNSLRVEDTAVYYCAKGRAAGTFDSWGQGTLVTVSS
VL: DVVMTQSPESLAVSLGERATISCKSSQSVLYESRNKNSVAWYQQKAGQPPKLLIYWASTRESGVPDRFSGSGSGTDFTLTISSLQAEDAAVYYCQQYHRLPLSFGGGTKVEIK

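Designed CDR sequences, proposed from the first random library and measured here. Group labels follow the data file (Ctrl: baseline library sampled from a position-specific scoring matrix, with some repeated check sequences; Rand: our label for a block that the file lists under HC and that is probably the random mutants of the ten best first-round binders; En: ensemble of fine-tuned language models; GP: Gaussian process model; GPLM: also part of the Gaussian process libraries; HC: hill climbing; Gen: genetic algorithm; Gibbs: Gibbs sampling; a sequence that several methods proposed may carry one label only). In AlphaSeq, yeast of one mating type display the scFv and yeast of the other type display the target. Pairs that bind mate more often; barcode pairs of the diploids are counted by sequencing. A regression on co-assayed BCL2-family reference pairs converts the normalised counts of each replicate to an apparent Kd. Mating was done six times.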

Variants are written as CDR1, CDR2 and CDR3 of the heavy chain (limits as in the source). Parent: GFTLNSYGIS, VIYSDGRRTFYGDSVK, GRAAGTFDS.
Variants here have at most six changes.
Values are apparent Kd, the geometric mean of the replicates that gave a signal; lower means stronger binding.
"nd" marks a missing value. The strain was present, yet no cells mated with the target were sequenced in any replicate, which points to weak or no binding.
The range of this assay differs from that of the first round, and the authors advise against merging the two.
The authors averaged sequences with at least three values out of six and counted those with two or fewer as poor binders.
As a blank, each scFv also met three strains without target: over all heavy chain designs, 1% of these pairings were detected, typically at 120 nM and seldom below 7.0 nM.
The parent sequence was in this pool as ten entries: three were never detected, three once, and four in most replicates, with averages from 2.2 nM to 240 nM.

Variant GFTLNQYGIS / VIYSDGRRTFYSDSVK / GQAAGTFDS [GPLM_HC] gave 2.0 nM (6 of 6 replicates). Variant GFTGNDYGAS / VIYSDGRRTFYGDSVK / GRAALHFIS [Rand] gave nd (0 of 6 replicates). For KFTLNSYGIS / VIYSDGRRTFYGDSVK / GQNAGTFDS [Ctrl], the assay gave 77 nM (6 of 6 replicates). Variant GFTLNSYGIS / VIYSDGRRTFYGDSVK / GRTAGSFTV [GP_HC] gave nd (0 of 6 replicates). With GFELNEYGIS / VIYSDGRRTFYGDSVK / GRTAGTFDG [GP_Gen] the result was 500 pM (6 of 6 replicates).

Variant GFTLESYGIS / VIYADGRRTFYHDSVK / GRAAGTFDS [GPLM_Gen] gave 1.5 nM (6 of 6 replicates). Variant GFSLNDYGIS / VIYSDGRRTFYGDSVK / GRAALTFDV [GPLM_HC] showed 190 nM (1 of 6 replicates). For GFHLNSYGIS / VIYSDGRRTFYIDSVK / GRHAGTFDS [GP_HC], the assay gave nd (0 of 6 replicates). For KFTVNSYGIS / VIYSDGRRTFYGDSVK / GRAAGTDDS [Ctrl], the assay gave nd (0 of 6 replicates). For GFDLNEYGIS / VIYADGRRTFYSDSVK / GNQAGTFDS [En_HC], the assay gave 340 pM (6 of 6 replicates).

Variant GFTLESYGIS / VIYSDGRRTFIGDSFK / GRAAGTFDS [Ctrl] showed nd (0 of 6 replicates). With GFNLNSYGIS / VIYSDGRRTFYGDNVK / GRTAGTFDS [GPLM_Gen] the result was nd (0 of 6 replicates). Variant GFTLNSYGIS / VIYADGRRTFYGDDVK / GRNAGTFDS [Ctrl] gave 2.9 nM (6 of 6 replicates). Variant GFSLNTYGIS / VIYSDGRRTFYKDSVK / GTAAGTFDS [GP_Gibbs] gave 2.3 nM (6 of 6 replicates). For GFTLNSYGIS / VIYSDGMRTFYADSVK / GRVAGTFDS [GPLM_Gen], the assay gave 1.1 nM (6 of 6 replicates).

For LFTLNEYGIS / VIYSDGRRTFYEDSVK / GRTAGTFDS [GP_HC], the assay gave 70 nM (5 of 6 replicates). For GFELNSYGIS / VIYSDGQRTFYGDSVK / GRTAGTFDS [GPLM_Gibbs], the assay gave 6.1 nM (6 of 6 replicates). Variant GFTLNDYGIS / VIYSDGMRTQYIDSVK / GRAAGTFDS [GPLM_HC] gave 7.7 nM (6 of 6 replicates). With GFSLNSYGIS / VIYSDGRRTFYADSVK / GRAAGTFDQ [GPLM_Gen] the result was 6.6 nM (6 of 6 replicates). Variant GFTLNSYGIS / VIYSDGRRTFYGDNVK / GRAAGTFDC [Ctrl] gave 39 nM (2 of 6 replicates).

For KFTLNEYGIS / VIYSDGRRTFYQDSVK / GRCAGTFDS [GP_HC], the assay gave nd (0 of 6 replicates). For GFTLNSYDIS / VIYSDGRRTFYDDSVK / GQLAGTFDS [Rand], the assay gave nd (0 of 6 replicates). Variant GFELNSYGIS / VIYSDGRRTFYHDSVK / GQAAGTFDS [GPLM_Gen] gave 4.9 nM (6 of 6 replicates). Variant GFTLNSYGIS / VIYSDGRRAFYGDSVK / GKAALTFKS [Ctrl] showed nd (0 of 6 replicates). Variant GFDLNSYGIS / VIYSDGKRTFYGDSVK / GRTAGTFDQ [GP_Gibbs] gave 960 pM (6 of 6 replicates).

Variant GFNLNSYGIS / VIYSDGRRTFYGDPVK / GRNAGTFDS [GP_Gen] showed 21 nM (6 of 6 replicates). With GFTLNSYGIS / VIYSDGRRTFYSDSVK / GAAGGTFDV [GPLM_HC] the result was 110 nM (2 of 6 replicates). For GSTLNEYGIS / VIYSDGRRTFYTDSVK / GRFAMGFDS [Rand], the assay gave nd (0 of 6 replicates). Variant GFELNSYGIS / VIYSDGMRTFYGDSVK / GRTAGTFDS [GP_Gen] showed 11 nM (5 of 6 replicates). Variant GFELNSYGIS / VIYSDGRRTFYADSVK / GQVAGTFDS [GPLM_Gen] showed 740 pM (6 of 6 replicates).

Variant GEWLNSYGIS / VIYSDGVRTQYGDSVK / GRAAGTFDS [Ctrl] gave nd (0 of 6 replicates). Variant GFKLNSYGIS / VIYSDGRRTFYGDSVK / GKQAGTFDS [GP_Gen] showed 110 nM (3 of 6 replicates). For GFSLNEYGIS / VIYSDGRRTFYGDSVK / GRMAGTFDG [GPLM_Gibbs], the assay gave 3.9 nM (6 of 6 replicates). For GFSLNSYGIS / VIYSDGRRTFYADDVK / GNAAGTFDN [GP_Gen], the assay gave 1.4 nM (6 of 6 replicates). Variant GFTLNSYGIS / VIYSDGVRTFYSDSVK / GWAAGTFDS [GP_HC] gave 5.4 nM (2 of 6 replicates).

For GFDLNSYGIS / VIYSDGRRTFYGDQVK / GRNAGTFDS [GP_Gen], the assay gave 2.2 nM (6 of 6 replicates).